Some compounds may have been tested in ways that are not shown here.
Test system: platelets in whole blood
Experiment: Platelet function testing with the Hemostasis Mechanism Analyzer (HMA): clumping, sticking, clotting in whole blood
Assay type: cell-based, human
Conditions: 0 dosage = 100

n1nc(-c2nn[nH]n2)n[nH]1
% clot time increase (Dosage (mg/ml) 0.67): 108%
% clump time increase (Dosage (mg/ml) 0.67): 110%
% stick time increase (Dosage (mg/ml) 0.67): 114%
% clot time increase (Dosage (mg/ml) 2): 128%
% clump time increase (Dosage (mg/ml) 2): 145%
% stick time increase (Dosage (mg/ml) 2): 157%
% clot time increase (Dosage (mg/ml) 2.7): 145%
% clump time increase (Dosage (mg/ml) 2.7): 255%
% stick time increase (Dosage (mg/ml) 2.7): 225%
% clot time increase (Dosage (mg/ml) 3.3): 190%
% clump time increase (Dosage (mg/ml) 3.3): 441%
% stick time increase (Dosage (mg/ml) 3.3): 413%
% clot time increase (Dosage (mg/ml) 5): 542%
% clump time increase (Dosage (mg/ml) 5): 2293%
% stick time increase (Dosage (mg/ml) 5): 1852%

From patent US9918964B2, “Reducing platelet activation, aggregation and platelet-stimulated thrombosis or blood coagulation by reducing mitochondrial respiration” (priority 2010, dated 2018)
